Reference: publication PMC8228537, “Acrylonitrile Derivatives against Trypanosoma cruzi: In Vitro Activity and Programmed Cell Death Study” (Pharmaceuticals, 2021)

Assay: Cytotoxicity, alamarBlue, murine macrophages
Format: cell-based
Conditions: mouse, J774A.1 murine macrophages, mean ± SD
Experimental: The cytotoxicity was evaluated against murine macrophages (J774A.1) using the same method mentioned in the antiparasitic assay, based on the alamarBlue Cell Viability Reagent®. In a sterile 96-well plate, 10^4 cells per well were added, then, after the complete adhesion, serial dilutions of the 32 compounds, using a deep well plate, and a 10% of alamarBlue® were joined.

CCOP(=O)(/C=C/C#N)OCC [Compound Q18, (E)-Diethyl 2-cyanovinylphosphonate]
CC50 at 24 h: 34.4 ± 1 µM
